Outcome and AC50 data for 17 compounds are collected here from PubChem BioAssay (EPA / NIEHS).

Protein sequences, listed by entry. Tags and fused reporters are not part of them. Lines headed by an entry give the natural chain unless they say otherwise; changes in a name come on top.
UniProt Q9UBC0: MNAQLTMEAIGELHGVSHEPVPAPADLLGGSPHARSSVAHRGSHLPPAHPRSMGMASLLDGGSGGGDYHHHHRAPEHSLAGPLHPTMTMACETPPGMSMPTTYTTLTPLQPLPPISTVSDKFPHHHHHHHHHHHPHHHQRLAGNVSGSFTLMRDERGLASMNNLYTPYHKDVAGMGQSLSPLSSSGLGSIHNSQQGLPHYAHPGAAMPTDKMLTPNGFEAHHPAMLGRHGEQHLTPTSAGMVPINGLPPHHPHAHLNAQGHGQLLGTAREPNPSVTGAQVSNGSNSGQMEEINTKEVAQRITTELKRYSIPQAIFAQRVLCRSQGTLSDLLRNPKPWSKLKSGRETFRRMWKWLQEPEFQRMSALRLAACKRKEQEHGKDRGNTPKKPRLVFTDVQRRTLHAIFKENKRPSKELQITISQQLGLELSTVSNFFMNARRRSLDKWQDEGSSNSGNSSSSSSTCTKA

This is a selection; strong and weak results do not stand in their true shares. Active and inactive are the calls of the source. How the source made its calls: active means hit-call score of the fitted dose curve at least 0.9, where 1 is the maximum; inactive means score below 0.9.

In this test the target is Hepatocyte nuclear factor 6 (Homo sapiens) (UniProt Q9UBC0). The experiment in a line: ATG_HNF6_CIS: Attagene CIS-FACTORIAL HepG2 Assay for human Hepatocyte Nuclear Factor 6 (HNF6) (AID 2282952). Conditions: HepG2 Attagene cis-factorial HNF6 reporter transcription; actives raise or lower the signal. The procedure: ATG_CIS is a cell-based, multiplexed-readout assay that uses HepG2, a human liver cell line, with measurements taken at 24 hours after chemical dosing in a 24-well plate.ATG_HNF6_CIS is one of 52 assay component(s) measured or calculated from the ATG_CIS assay. It is designed to make measurements of mRNA induction, a form of inducible reporter, as detected with fluorescence intensity signals by Reverse transcription polymerase chain reaction (RT-PCR) and Capillary electrophoresis technology.Data from the assay component ATG_HNF6_CIS was analyzed into 1 assay endpoint. This assay endpoint, ATG_HNF6_CIS, was analyzed with bidirectional fitting relative to DMSO as the negative control and baseline of activity. Using a type of inducible reporter, measures of mRNA for gain or loss-of-signal activity can be used to understand the reporter gene at the transcription factor-level as they relate to the gene ONECUT1. Furthermore, this assay endpoint can be referred to as a primary readout, because this assay has produced multiple assay endpoints where this one serves a reporter gene function. To generalize the intended target to other relatable targets, this assay endpoint is annotated to the dna binding intended target family, where the subfamily is homeobox protein.
Human liver HepG2 cells are transiently transfected with multiple reporter transcription units (MRTUs) in 6-well plates using FuGene 6 reagent (Roche; 3 ml FuGene/1 mg DNA). The MRTU constructs are regulated by a cis-regulating element (promoter). […] A major difference between the CIS and TRANS system is that in CIS activities of endogenous TFs are measured, whereas the TRANS assay evaluates changes in activities of exogenous, chimeric NR-Gal4 proteins. […] At the end of 24 hour incubation, total RNA was isolated using TriZol reagent (Invitrogen). The isolated RNA is then reverse-transcribed using oligo(dT) primer and Mo-MLV reverse transcriptase (Invitrogen) with DNAse I (Ambion) treatment for 30 min. The one-tenth of the produced cDNA was amplified by PCR using Taq DNA polymerase (Invitrogen) and two reporter sequence-specific primers. The PCR products were fluorescently labeled by primer extension with 6-arboxyfluorescein (6-FAM) 5'-labeled reporter sequence-specific primer (2 min at 95 C, 20 s at 68 C and 10 min at 72 C) and these products were digested with 5U of HpaI (New England Biolabs) for 2h at 37 C. The fragments were purified using Qiaquick PCR columns (Qiagen), analyzed on an ABI 3130xL genetic analyzer (Applied Biosystems) with peak positions identified by using a set of X-rhodamine (ROX)-labeled MapMarker1000 molecular weight standards (BioVentures). The raw capillary electrophoresis data was processed using Attagraph software (Attagene).
As for `CC(C)CCCCCCCOP(OCCCCCCCC(C)C)Oc1ccccc1`, the compound was called inactive.

As to `Cc1cc([N+](=O)[O-])cc([N+](=O)[O-])c1O`, the compound was classed as inactive.

For the compound `CCCCO[P+](=O)OCCCC`, the call was inactive.

Take `CN(C(=O)Cc1cccc2occc12)[C@H]1CC[C@@]2(CCCO2)C[C@@H]1N1CCCC1`: the result was inactive.

As for `O=C(Cl)Oc1ccccc1`, the result was inactive.

As for `O=[p+]1oc2ccccc2c2ccccc21` (configuration not stated), the compound was classed as inactive.

Take `O=[P+](Oc1ccccc1)Oc1ccccc1`: the call was inactive.

For `CC(C)OP(=S)(OC(C)C)SCCNS(=O)(=O)c1ccccc1`, the result was inactive.

`N#CSc1ccc([N+](=O)[O-])cc1[N+](=O)[O-]`: the call was inactive.

`O=[N+]([O-])c1ccc([N+](=O)[O-])cc1`: the outcome was inactive.

As for `CCCCOP(OCCCC)OCCCC`, the call was inactive.

As to `O=C1C2CC=CCC2C(=O)N1SC(Cl)(Cl)C(Cl)Cl` (configuration not stated), the result was inactive.

As for `O=[As]c1ccccc1` (configuration not stated), the AC50 (commonly the midpoint of the concentration-response curve, whichever way the signal moves) was active: 530 nM.

`ClP(Cl)c1ccccc1`: the compound was classed as inactive.

Take `O=C(Cl)OCCOC(=O)Cl`: the compound was called inactive.

For the compound `O=P(Cl)(Oc1ccccc1)Oc1ccccc1`, the compound was called inactive.

For `CCCCC(CC)CO[P+](=O)OCC(CC)CCCC` (configuration not stated), the result was inactive.
